The assay deals with µ opioid receptor (Rattus norvegicus, UniProt P33535). In words: [35S]GTPγS functional assay, rat brain membranes, µ receptor. It counts as biochemical, Sprague-Dawley rat. Details: from tissue; host or cells: Sprague-Dawley rat brain (without cerebella) membranes. The settings on record: read-out: EC50, stimulation of [35S]GTPγS binding. How it is done: Membrane fractions were prepared from Sprague-Dawley rat or guinea pig brains as described above. To determine binding of [^35S]GTPyS, rat or guinea pig brain membranes (10 µg of protein) were incubated for 60 min at 30 °C in Tris-EGTA buffer (50 mM Tris-HCl buffer, 3 mM MgCl2, 1 mM EGTA, […], pH 7.4) containing 30 µM GDP, 0.05 nM [^35S]GTPyS and appropriate concentrations of the respective compounds according to the present invention in a final volume of 1 ml. The reaction was terminated by vacuum filtration through Whatman GF/B glass fibre filters. Filters were washed three times with ice-cold 50 mM Tris-HCI buffer (pH 7.4) and the bound radioactivity was measured by liquid scintillation counting (Beckman Coulter™ LS6500). Basal activity was determined by subtracting the non-specific binding (measured in the presence of 100 µM unlabelled GTPyS) from the total binding (measured in the absence of the compound).
Stimulation produced by the compound is given as percentage of the basal activity (given as 100%). Functional data, EC50 (nM; half maximal effective concentration) and maximal stimulation Emax (% stimulation over basal level; maximal effective concentration), were calculated by using nonlinear regression analysis and sigmoidal curve fitting GraphPad Prism (San Diego, CA, USA) program. […]
On the technique in general: Binding of GTPγS marks nucleotide exchange on a G protein.

Chains of the proteins cited; added tags and fusions are not shown.
UniProt P33535, whole entry: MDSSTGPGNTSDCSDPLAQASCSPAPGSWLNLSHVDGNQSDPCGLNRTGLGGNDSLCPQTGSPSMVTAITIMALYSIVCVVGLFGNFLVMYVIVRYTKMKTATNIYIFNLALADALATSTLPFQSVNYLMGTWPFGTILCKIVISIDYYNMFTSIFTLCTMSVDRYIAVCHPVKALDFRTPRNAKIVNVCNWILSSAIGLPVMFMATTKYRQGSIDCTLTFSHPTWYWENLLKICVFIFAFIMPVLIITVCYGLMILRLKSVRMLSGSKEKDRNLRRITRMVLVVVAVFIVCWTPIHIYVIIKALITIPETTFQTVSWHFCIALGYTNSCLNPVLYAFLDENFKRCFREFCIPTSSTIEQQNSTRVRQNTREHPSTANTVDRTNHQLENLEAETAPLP

For `C[C@@H](NC(=O)[C@@H](N)Cc1ccc(O)cc1)C(=O)NCC(=O)N(C)[C@@H](Cc1ccccc1)C(=O)NCCO` [DAMGO, [D-Ala^2, Me-Phe ^4, Gly-ol^5]enkephalin], the EC50 (as a rule, the midpoint of the concentration-response curve) was determined as 297 ± 40 nM.

(Values after patent EP2340832A1, “Morphinan-6-one compounds for the treatment or prevention of neurodegenerative diseases” (Universität Innsbruck, priority 2009, dated 2011).)
